AlphaSeq binding of Ab-14 light chain variants to a spike HR2 peptide

Antigen: PDVDLGDISGINAS, a 14-residue peptide of the SARS-CoV-2 spike HR2 region.

Parent scFv Ab-14: VH joined to VL by three GGGGS repeats. Changes lie in the light chain CDRs alone.
VH: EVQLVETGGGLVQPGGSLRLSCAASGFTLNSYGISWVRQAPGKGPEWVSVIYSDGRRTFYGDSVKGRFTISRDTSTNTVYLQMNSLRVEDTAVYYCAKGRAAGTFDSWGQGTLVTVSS
VL: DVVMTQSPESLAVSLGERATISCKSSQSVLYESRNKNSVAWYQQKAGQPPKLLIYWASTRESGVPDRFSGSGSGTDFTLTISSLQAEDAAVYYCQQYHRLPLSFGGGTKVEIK

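This is the validation round: designs drawn from the data on random variants, tested in the same kind of assay. Group labels follow the data file (Ctrl: baseline library sampled from a position-specific scoring matrix, with some repeated check sequences; En: ensemble of fine-tuned language models; GP: Gaussian process model; HC: hill climbing; Gen: genetic algorithm; Gibbs: Gibbs sampling; a sequence that several methods proposed may carry one label only). The scFvs were displayed on barcoded MATa yeast, the peptide on MATalpha yeast. Mating (16 h, 30 °C) was followed by selection of diploids and sequencing of their barcodes. Read counts were normalised to the haploid input and turned into Kd by a linear fit to BCL2-family pairs of known affinity, for each replicate. The assay was run in six technical replicates.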

The parent's light chain CDRs are KSSQSVLYESRNKNSVA, WASTRES, QQYHRLPLS; each variant's own CDRs replace them letter for letter. Values are log10 of the apparent Kd in nM; lower means stronger binding. Replicates are averaged; those with no signal do not enter the mean. A pair that was not seen in any replicate is written "not detected"; this usually means weak binding, but a binder can also be missed. Values of this round are not directly comparable with the first-round values of the same sequences. The authors averaged sequences with at least three values out of six and counted those with two or fewer as poor binders. As a blank, each scFv also met three strains without target: over all light chain designs, 4% of these pairings were detected, typically at 2.64 and seldom below 1.59. The control count says in how many pairings with the empty strains this scFv gave a signal.

CDR-L1 | CDR-L2 | CDR-L3 | group | log10 Kd (nM), mean | seen in | empty controls
KFSWSNPYETRNKNSVA | EASQREE | QQYHRLPLS | GP_Gibbs | -0.17 | 6/6 | 0/18
KMEQGVLYESRNKQSVA | GASVRES | QQYHRLPLS | GP_HC | -0.11 | 6/6 | 2/18
SITQLVGYGQKNKNSVA | QMSTREN | QQYDRLPLS | En_HC | 0.64 | 6/6 | 0/18
MISQLFNMGQFAINSVA | QASQRNE | QQYDRLPLI | En_Gen | 0.26 | 6/6 | 0/18
KSRQSVLYESRNKNSVA | AASTRES | QQYHRLPLS | Ctrl | 0.83 | 6/6 | 1/18
VLSQSVLDESRNKHSVA | EASTQES | QQYHRLPLS | Ctrl | 0.31 | 6/6 | 1/18
MISQLYNMGTFAINSVA | QASIRNE | QQYDRLPLM | En_Gen | 1.88 | 6/6 | 0/18
GILSQMDGTSAYKENIA | NEAERLR | QQYQRLPLT | En_Gibbs | 0.67 | 6/6 | 0/18
MITAMLRGVGRDKNSVA | NAQTREK | QHYHRLPLS | En_HC | not detected | 0/6 | 0/18
KLQFSVDYESRNKNAVA | EASTREQ | QQYHRLPLS | GP_Gibbs | -0.39 | 6/6 | 0/18
KLPQSELYESRNKNSVA | QASTRES | QQYHRLPLS | GP_Gen | -0.58 | 6/6 | 0/18
KISGLYQKESKNKNSVA | EMVNRES | QQYDRLPLS | En_HC | 0.83 | 6/6 | 0/18
KSQQSVLYESRNKNSVA | YASTRES | QQYHRLPLS | Ctrl | 0.97 | 6/6 | 0/18
TISQMTSLFSQSINNVA | EVSCREN | QQYDRLPLS | En_Gen | 1.72 | 4/6 | 0/18
KAVQGELYESRDWNNVA | DASTRLS | QQYHRLPLS | GP_Gibbs | 0.20 | 6/6 | 1/18
KLQQSVLYQSRNKNSVA | EASTRES | QQYHRLPLS | GP_Gen | 0.01 | 6/6 | 0/18
KLQQSMLYMDRNANNVA | NASQRES | QQYHRLPLS | GP_Gibbs | 0.34 | 6/6 | 0/18
KSLQPKLYESRNKNSVA | QASTRES | AQYHRTPLS | Ctrl | not detected | 0/6 | 0/18
NIYQAMHTLSQMKDNVA | DVNERGS | QQYYRLPLS | En_Gen | -0.02 | 6/6 | 0/18
KWSWSVDDESRNDNSVA | DASTRED | QQYHRLPLS | GP_Gibbs | 0.45 | 6/6 | 0/18
KSSQSVGVESRNKNSVA | WASTRET | QQYHRLPLS | Ctrl | 1.57 | 6/6 | 0/18
KVPQSMLYESRNKNNVA | AASDRES | QQYHRLPLS | GP_Gibbs | -0.03 | 6/6 | 2/18
KLQGSVLYESRNKNSVA | GASQRED | QQYHRLPLS | GP_Gibbs | -0.41 | 6/6 | 0/18
TLSQMTDLESVHKNSIA | DLMTRES | QQYHRLPLS | En_HC | 0.41 | 6/6 | 2/18
TIGQSVHETSKNKNSVA | HASTRED | QQYDRLPLS | En_HC | 0.42 | 6/6 | 0/18
KSSQSVMAESRNKNSVA | EASTRES | QGYHRLPLS | Ctrl | 1.80 | 6/6 | 0/18
LLSQSVLLESRNWNAVA | MASTRMD | QQYHRLPLS | GP_Gibbs | 0.59 | 6/6 | 1/18
TLTQVTMVESYSKNSVA | QASTRLE | QDYHRLPLS | En_HC | 0.56 | 6/6 | 4/18
KLWQSQLYESRNKNSVA | NASTRLS | QQYHRLPLS | GP_Gen | 0.22 | 6/6 | 1/18
KSSQSVLYESRNQNSVA | WADIRES | QQYHRLPLS | Ctrl | 2.09 | 6/6 | 0/18
KLSQSVEYESRQKNSVA | NASTRMQ | QQYHRLPLL | GP_Gibbs | 0.43 | 6/6 | 3/18
KLSQSVLYEDRNKNSVA | NASQRES | QDYHRLPLS | GP_Gen | 0.02 | 6/6 | 2/18
KLQQSFLYEERNSNAVA | NASLREL | QQYHRLPLS | GP_Gibbs | -0.11 | 6/6 | 2/18
KSSQSVLYESRNKNSVA | WGSTRNS | QQYHRLPLS | Ctrl | 2.10 | 6/6 | 2/18
MMSQMFEGLTTSKNPVA | QVSTREE | QQYHRLPLS | En_HC | 1.91 | 4/6 | 0/18
TISGTLMFGMRNRSNVA | EVSERLN | QQYDRLPLI | En_Gen | 2.03 | 6/6 | 0/18
KLRQVTGYESYIKNSVA | QTSTRVS | QDYHRLPLS | En_HC | 0.97 | 6/6 | 1/18
RTTSHESESKGADASVA | EASLLED | QQYHRLPLD | En_Gibbs | 2.32 | 6/6 | 0/18
MSSQSVLYESRNMNSVA | WASTRES | QQYNRLPLS | Ctrl | 1.07 | 1/6 | 0/18
NISESMYFQSRNKSNIA | EMSTRER | QHYHRLPLS | En_HC | 2.19 | 6/6 | 0/18
GIDPYEAMAGKNKESIA | EAAVTLT | QQYARLPLS | En_Gibbs | 1.40 | 1/6 | 0/18
TLSQMSGIEAVKHNSVA | ENSTREN | QQYDRLPLS | En_Gen | 2.96 | 5/6 | 2/18
MISGSVMSNSRLKNSVA | QTTTRES | QQYDRLPLS | En_HC | 0.61 | 6/6 | 1/18
KLRQSTKYESRNQNSVA | WASTRED | QQYHRLPLS | GP_HC | 0.96 | 6/6 | 2/18
KSSQSVLAESRNMNSVA | WASTRES | QQYHRLPLS | Ctrl | 1.34 | 6/6 | 3/18
QVTAFNEHLKDQQQAMA | NATMRDQ | QQYERLPLS | En_Gibbs | 0.95 | 6/6 | 1/18
KFSQSQLYESRNKNSVA | DASQRES | QQYHRLPLS | GP_Gen | 0.13 | 6/6 | 2/18
KSSQSVLYESRNKNSVA | WASTRES | QQYHRLPFK | Ctrl | 2.53 | 5/6 | 0/18
KLSQSVLYEERMKNSVA | NASTRES | QQYHRLPLS | GP_Gen | 0.75 | 5/6 | 0/18
KISMSMLMESFHKNSVA | ENSTREE | QHYHRLPLS | En_HC | not detected | 0/6 | 0/18
QLGSVQDMTSKNKNSVA | EQSTREN | QQYHRLPLS | En_HC | 0.78 | 5/6 | 0/18
KVSQSNPYESRNAQSVA | NASQRCS | QQYHRLPLS | GP_Gibbs | 0.75 | 6/6 | 0/18
KSDQGWLYESRNKNSVA | GASTRES | QQYHRLPLS | GP_HC | -0.31 | 6/6 | 2/18
KLSQSWLYDSRNKNNVA | NASTRES | QQYHRLPLS | GP_HC | -0.35 | 6/6 | 4/18
MVNGITDHLSKNKNSVA | ETVTREE | QQYDRLPLS | En_Gen | 0.73 | 6/6 | 0/18
TLWDWIQGGDWAKKNVA | DEQTRMV | QQYYRLPLS | En_Gibbs | 0.59 | 6/6 | 0/18
KSSISYLEGSRNKNSVA | EASTRES | QQYHRLPLS | GP_HC | 0.14 | 6/6 | 2/18
KSSPSVLFESRNKNSVA | DASTRSS | QQYHRLPLS | GP_HC | -0.07 | 6/6 | 0/18

The 3 strongest on average among those seen in every replicate, once more:

{"CDR-L1": "KLPQSELYESRNKNSVA", "CDR-L2": "QASTRES", "CDR-L3": "QQYHRLPLS", "group": "GP_Gen", "log10 Kd (nM), mean": "-0.58", "seen in": "6/6", "empty controls": "0/18"}
{"CDR-L1": "KLQGSVLYESRNKNSVA", "CDR-L2": "GASQRED", "CDR-L3": "QQYHRLPLS", "group": "GP_Gibbs", "log10 Kd (nM), mean": "-0.41", "seen in": "6/6", "empty controls": "0/18"}
{"CDR-L1": "KLQFSVDYESRNKNAVA", "CDR-L2": "EASTREQ", "CDR-L3": "QQYHRLPLS", "group": "GP_Gibbs", "log10 Kd (nM), mean": "-0.39", "seen in": "6/6", "empty controls": "0/18"}

Values reported by Li et al. 2023, doi:10.1038/s41467-023-39022-2 (FLAb copy).